# Data taken from PubChem BioAssay AID662 (National Center for Advancing Translational Sciences (NCATS), 2007).
# The entries are a selection whose mix differs from that of the whole data set. Some of these compounds have results that are not shown, active ones among them. Records with an inconclusive call do not appear. Activity calls are given as the source filed them. The call rests on the fitted dose curve; in most records, active means well fitted activation curve with a large enough effect in the signal ratio, with a control signal flat (not every such curve was filed as active); inconclusive means small, poorly fitted or top-dose-only effect, or effect the other way, or a change in a side signal; inactive means flat fitted curve, though single readings scatter; the % refers to the signal ratio.
# Experiment: Cell signaling CRE-BLA (Fsk stim); further: % of control where 0% means no effect
# Details: CHO CRE-bla reporter (cAMP response element driving beta-lactamase), forskolin EC10, beta-lactamase ratio; at 7.6 µM unless noted
# Description: NIH Molecular Libraries Screening Centers Network [MLSCN]
# NIH Chemical Genomics Center [NCGC]
# Assay Provider: Marshall W. Nirenberg, U.S. National heart lung & blood institute
# Memories persist for different lengths of time, from seconds or minutes to a lifetime. There are two kinds of memory: short-term memory (STM) and long-term memory (LTM). STM lasts for minutes to hours, which maybe mediated by modifications of molecules involved in synaptic functions. LTM lasts for days or longer, and may be due to the formation of new synapses or restructuring of existing synapses. LTM, but not STM, requires gene transcription and synthesis of proteins. CREB (cyclic-AMP Responsive Element Binding Protein) is one of the candidates plays an important role for enhancement of some types of LTM. CREB, a family of transcription factors, regulates the transcription of genes containing cAMP Responsive Elements (CRE). CRE is a nucleotide sequence often found in the promoter regions of genes that are binding sites for CREB.
# Using a beta-lactamase reporter-gene under control of cAMP responsive element, a cell-based assay [CellSensor(TM) CRE-bla CHO developed by Invitrogen Corp.] was used to measure forskolin-induced signaling. Library compounds were measured for their ability to modulate positively or negatively the action of EC10 NKH 477, a water soluble forskolin, on reporter gene activity. Compounds were screened in a titration series in 1536-well format. Positive and negative modulators were identified based on the AC50 values derived from the screening data.
# NCGC Assay Protocol Summary
# 2000 cells/5uL in Opti-MEM medium containing 0.5% dialyzed FBS, 0.1 mM NEAA, 1 mM sodium pyruvate and 10 mM HEPES was dispensed into 1536-well plates and cells were cultured at 37 degrees Celsius overnight. […] And then the plates were incubated at 37 degrees Celsius for 3 hours. 1 uL of CCF4-dye mixture was added to each well. After incubated at room temperature for 2 hours the plates were measured on an EnVision plate reader at Excitation 405nm, Emission1=460nm and Emission 2=530nm. The %Activity was determined from the ratio of 460nm/530nm.
# Keywords: NIH Roadmap, MLSCN, MLSMR, qHTS, NCGC, CRE, beta-lactamase reporter-gene assay.
row,Compound,"activity change, negative = inhibition"
1,C=C(C)C#C[C@@](O)(C(=O)OC1CCN(C)CC1)c1ccccc1,inactive: -2.81%
2,CN1CCC[C@H](OC(=O)[C@](O)(c2ccccc2)C2CCCC2)C1,inactive: -7.7%
3,O=C(OC1CN2CCC1CC2)C(CO)(c1ccccc1)c1ccccc1 (stereo not given),inactive: 0.884% [at 38.2 µM]
4,CN1CC[C@H](OC(=O)[C@](O)(c2ccccc2)C2CCCC2)C1,inactive: -3.66%
5,CN(C)c1cccc(C(=O)NCC2(N(C)C)CCCCC2)c1,inactive: -2.09% [at 38.2 µM]
